Experimental data: patent publication US20240066137A1 (ONEGENE BIOTECHNOLOGY, published 2024)

Biological target: T1, IL-1RA acceptor (UniProt P14778 18-569, limits assumed)
T1 sequence (looked up): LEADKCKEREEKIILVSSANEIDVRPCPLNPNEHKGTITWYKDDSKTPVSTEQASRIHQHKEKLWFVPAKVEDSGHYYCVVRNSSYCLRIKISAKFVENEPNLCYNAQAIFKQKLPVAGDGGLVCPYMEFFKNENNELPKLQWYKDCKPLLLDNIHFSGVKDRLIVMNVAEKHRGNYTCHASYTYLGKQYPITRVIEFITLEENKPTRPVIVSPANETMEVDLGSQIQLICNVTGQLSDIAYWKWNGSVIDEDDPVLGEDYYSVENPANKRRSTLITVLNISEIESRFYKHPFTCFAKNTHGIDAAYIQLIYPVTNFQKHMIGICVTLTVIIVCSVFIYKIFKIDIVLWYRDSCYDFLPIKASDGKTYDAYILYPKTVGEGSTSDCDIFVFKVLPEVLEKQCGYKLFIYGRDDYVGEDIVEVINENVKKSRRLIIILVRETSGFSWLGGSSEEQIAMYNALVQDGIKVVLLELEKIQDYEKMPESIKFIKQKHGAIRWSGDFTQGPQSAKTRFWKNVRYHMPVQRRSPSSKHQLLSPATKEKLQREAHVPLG
Assay: cell-based or functional assay

IC50, NF-κB reporter gene luciferase assay with IL-1β; n = 2: 0.236 nM
B1: IL-1RA-Ub (Donor) (other)
chain: MRPSGRKSSKMQAFRIWDVNQKTFYLRNNQLVAGYLQGPNVNLEEKIDVVPIEPHALFLGIHGGKMCLSCVKSGDETRLQLEAVNITDLSENRKQDKRFAFIRSDSGPTTSFESAACPGWFLCTAMEADQPVSLTNMPDEGVMVTKFYFQEDE
